Measured values published in ChEMBL document CHEMBL1135659, “Sulfamide-based inhibitors for carboxypeptidase A. Novel type transition state analogue inhibitors for zinc proteases” (J Med Chem, 2002).

Target: T1, Carboxypeptidase A1 (Bos taurus, UniProt P00730)
T1 sequence (P00730 whole entry): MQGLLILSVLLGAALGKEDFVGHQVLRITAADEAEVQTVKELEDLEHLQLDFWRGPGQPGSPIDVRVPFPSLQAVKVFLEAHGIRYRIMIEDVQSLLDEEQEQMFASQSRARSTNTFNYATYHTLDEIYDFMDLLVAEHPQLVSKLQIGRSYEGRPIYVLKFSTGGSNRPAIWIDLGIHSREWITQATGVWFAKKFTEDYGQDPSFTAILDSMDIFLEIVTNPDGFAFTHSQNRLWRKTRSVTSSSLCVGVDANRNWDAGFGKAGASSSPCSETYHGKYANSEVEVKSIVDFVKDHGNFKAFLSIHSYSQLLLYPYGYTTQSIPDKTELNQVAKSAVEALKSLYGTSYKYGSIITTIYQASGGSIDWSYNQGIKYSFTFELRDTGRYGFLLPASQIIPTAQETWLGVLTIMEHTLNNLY
Experiment: Inhibitory activity against Carboxypeptidase A

- Ki: 650 nM
SMILES: NS(=O)(=O)N[C@@H](Cc1ccccc1)C(=O)O
